# Experimental data as given in patent US11278587B2 (9 METERS BIOPHARMA, INC., priority 2018, dated 2022).
# Square brackets hold non-standard residues; d marks the D form. Ends that are not written are not given here. Peptide text beside a SMILES is read from it.
# Test system: RET melanoma cells
# Assay: RET melanoma model, tumor size, growth kinetics, survival
Molecule,"signs of toxicity in treated animals (RET melanoma mice, (d)-larazotide with or without cICB)","RET tumor outgrowth, standalone therapy (oral gavage five times a week from day of tumor injection, no ICB, FIG. 2B)"
CC(C)C[C@@H](NC(=O)[C@H](NC(=O)CNC(=O)CN)C(C)C)C(=O)N[C@@H](C(=O)N[C@H](CCC(N)=O)C(=O)N1CCC[C@@H]1C(=O)NCC(=O)O)C(C)C [(d)-larazotide] (H-GG[dV][dL][dV][dQ][dP]G-OH),appeared healthy with no overt signs of toxicity,
GGVLVQPG [larazotide],,tended to boost RET outgrowth within the first 10 days
